# Source: PubChem BioAssay AID588627 (Johns Hopkins Ion Channel Center, 2011)
# Chains of the proteins cited; added tags and fusions are not shown.
# UniProt Q96LB2, whole entry: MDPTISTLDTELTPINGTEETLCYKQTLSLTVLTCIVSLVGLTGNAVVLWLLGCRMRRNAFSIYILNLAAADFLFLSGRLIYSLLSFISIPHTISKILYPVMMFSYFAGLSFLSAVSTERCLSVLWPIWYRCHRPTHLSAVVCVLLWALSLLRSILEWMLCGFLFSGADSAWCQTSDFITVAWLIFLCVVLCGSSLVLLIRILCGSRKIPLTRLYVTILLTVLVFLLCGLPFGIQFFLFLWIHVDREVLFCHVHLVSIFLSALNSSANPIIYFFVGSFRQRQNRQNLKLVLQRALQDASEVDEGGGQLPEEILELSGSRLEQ
# Only a part is listed here, and it is no random draw. Some salts and complexes are drawn in separate pieces, as the source files them; their charges need not balance. The source made the active and inactive calls.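 The calls were made as follows: active = calcium response B-score plate-corrected fluorescence ratio at least 3 library SD, with starting fluorescence B-score inside 5 SD; inactive = the rest.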
# Target: Mas-related G-protein coupled receptor member X1 (Homo sapiens) (UniProt Q96LB2)
# Experiment: MrgX1 activation via calcium signaling – HEK293 cells, Fluo-4 calcium flux, primary screen (AID 588627)
# Settings: Fluo-4 calcium fluorescence, agonist mode, at 10 µM
# Outline: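 Material: MrgX1-expressing HEK293 cells; input: 15,000 cells per well; doses: test compound given as first of three sequential additions; schedule: overnight plating before 1 h dye loading; technique: Fluo-4 NW calcium-flux fluorescence, kinetic read; evaluation: baseline-normalised fluorescence change ratio, B-scored; control set: plate-wise positive and negative controls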
row,Structure (SMILES),outcome
1,CP(=O)(Nc1ccc(Cl)cc1Cl)Oc1ccccc1 (centres undefined),inactive
2,Nc1cccc2ccc([As](=O)(O)O)cc12,inactive
3,Nc1ccc2c(ccc3cccnc32)n1.O=[N+]([O-])c1cc([N+](=O)[O-])c(O)c([N+](=O)[O-])c1,inactive
4,O=C(Nc1cc([As](=O)(O)O)ccc1O)c1ccccc1,inactive
5,CCOC(=O)c1ccc(NP(C)(=O)Oc2ccc(Cl)cc2)cc1 (centres undefined),inactive
6,CP(=O)(OC12CC3CC(CC(C3)C1)C2)OC12CC3CC(CC(C3)C1)C2,inactive
7,CC(C)(C)C(=O)NC(Sc1ccncn1)C(Cl)(Cl)Cl (centres undefined),inactive
8,O=[N+]([O-])c1ncn(CCn2ncnc2[N+](=O)[O-])n1,inactive
9,O=[N+]([O-])c1cccc(NC2=NCC(CBr)S2)c1 (centres undefined),inactive
10,O=C(O)CNc1ccc([As](=O)(O)O)cc1,inactive
11,COc1ccc(C2=NCC(CBr)S2)cc1 (centres undefined),inactive
12,COc1ccc(OP(C)(=O)Nc2ccc(Br)cc2)cc1 (centres undefined),inactive
13,CCN(CC)CC(O)COC(=O)C(O)(c1ccccc1)C1CCCCC1 (centres undefined),inactive
14,O=C(OCCCN1CCCC1)C(O)(c1ccccc1)C1CCCCC1 (centres undefined),inactive
15,COc1ccccc1OP(C)(=O)Nc1c(C)n(C)n(-c2ccccc2)c1=O (centres undefined),inactive
16,O=[N+]([O-])c1cccc2n[nH]nc12,inactive
17,CC(=O)N1C2C3N(C(C)=O)C1C1N(C(C)=O)C(C(N1C(C)=O)N3C(C)=O)N2C(C)=O,inactive
18,CCc1nc2c(n1)c1c(non1O)c1c2no[n+]1[O-],inactive
19,O=[N+]([O-])c1cc([N+](=O)[O-])c(CCNc2ccccc2)c([N+](=O)[O-])c1,inactive
20,CCc1ccc(OP(C)(=O)Nc2cccnc2)cc1 (centres undefined),inactive
21,Cc1ccc(NP(=O)(Oc2ccccc2)Oc2ccccc2)nc1,inactive
22,CP(=O)(Oc1ccccc1)N1CCOC1=O (centres undefined),inactive
23,C[N+]1=C2C=CC=CC=C2SC12C([N+](=O)[O-])=CC([N+](=O)[O-])=C[C-]2[N+](=O)[O-] (centres undefined),inactive

row,Structure (SMILES),outcome
1,CC(C)(C)c1ccc(OP(C)(=O)O)cc1,inactive
2,Nc1ccc([As](=O)(O)c2ccc(N)cc2)cc1,inactive
3,COc1ccccc1OP(C)(=O)Nc1ccccc1Br (centres undefined),inactive
4,CP(=O)(Nc1ccc(Cl)cc1)Oc1ccc(F)cc1 (centres undefined),inactive
5,CCN(/C(=N/P(=O)(N1CCOCC1)N1CCOCC1)N1CCOCC1)c1ccc(OC)cc1,inactive
6,CN(C)C(=O)OCCc1n(C)cc[n+]1C,inactive
7,CN(C)C(=O)c1c([N+](=O)[O-])cc([N+](=O)[O-])cc1[N+](=O)[O-],inactive
8,CC(C)=N/N=C(\N)N[N+](=O)[O-],inactive
9,CC1CCN(C(=O)Oc2c(Cl)cc(Cl)c3cccnc23)CC1,inactive
10,CP(=O)(Nc1ccc(SC(F)(F)F)cc1)Oc1ccc(F)cc1 (centres undefined),inactive
11,CC(C)C(=O)NC(Sc1ccccc1)C(Cl)(Cl)Cl (centres undefined),inactive
12,O=P(Nc1nccs1)(c1ccccc1)c1ccccc1,inactive
13,CCOP(C)(=S)SCC(=O)NC(C)(CC)C(=O)O (centres undefined),inactive
14,c1nnnn1CCn1cnnn1,inactive
15,CP(=O)(Nc1ccc2c(c1)OCCO2)Oc1ccccc1 (centres undefined),inactive
16,Cc1ccccc1NP(C)(=O)Nc1ccccc1C,inactive
17,COc1ccc(OP(C)(=O)Nc2cccc(Br)c2)cc1 (centres undefined),inactive
18,O=P(Nc1ccccn1)(c1ccc(Br)cc1)c1ccc(Br)cc1,inactive
19,C[C@H]1OP(=O)(Oc2ccccc2)[C@H](O)[C@H](O)[C@H]1N=[N+]=[N-] (some centres undefined),inactive
20,CN(C)CCOC(=O)C(O)(c1ccccc1)C1CCCCC1 (centres undefined),inactive
21,O=P(Nc1nc2ccccc2s1)(c1ccccc1)c1ccccc1,inactive
22,COc1ccc(NP(C)(=O)Oc2ccccc2OC)cc1 (centres undefined),inactive
23,O=[N+]([O-])c1ccc(O)c(/C=N/Nc2ccc([N+](=O)[O-])cc2[N+](=O)[O-])c1,inactive

row,Structure (SMILES),outcome
1,O=[N+]([O-])c1ccc(OP2(=O)COCCO2)cc1 (centres undefined),inactive
2,CC(=O)NC(SC(=S)N(C)C)C(Cl)(Cl)Cl (centres undefined),inactive
3,O=[N+]([O-])c1ncn(CCn2cnc([N+](=O)[O-])n2)n1,inactive
4,O=[N+]([O-])c1cc([N+](=O)[O-])c(NCC2CCS(=O)(=O)C2)c([N+](=O)[O-])c1 (centres undefined),inactive
5,O=[As](O)(c1ccccc1)c1ccc(O)cc1,inactive
6,Nc1ccc([As](=O)(O)c2ccc([N+](=O)[O-])cc2)cc1,inactive
7,C(Cc1nn[nH]n1)Cc1nn[nH]n1,inactive
8,O=C(OC1CN2CCC1CC2)c1cccc(Cl)c1 (centres undefined),inactive
9,CCNC(=S)/N=C(\N)N[N+](=O)[O-],inactive
10,O=C(NC1CCS(=O)(=O)C1)NP(=S)(Oc1ccccc1)Oc1ccccc1 (centres undefined),inactive
11,Cc1ccc(NP(=O)(Oc2cccc(C)c2)Oc2cccc(C)c2)nc1,inactive
12,CCOC(=O)NC(Sc1ccccc1)C(Cl)(Cl)Cl (centres undefined),inactive
13,c1ccc(-c2nn[nH]n2)c(-c2nn[nH]n2)c1,inactive
14,CCOC(=O)c1ccc(NP(C)(=O)Oc2ccc(F)cc2)cc1 (centres undefined),inactive
15,COc1ccc(OP(C)(=O)Nc2ccc(SC(F)(F)F)cc2)cc1 (centres undefined),inactive
16,CC(=O)NC(SC(=S)N(CC(C)C)CC(C)C)C(Cl)(Cl)Cl (centres undefined),inactive
17,Cc1ccc(OP(=O)(Nc2ccccn2)Oc2ccc(C)cc2)cc1,inactive
18,COC(=O)c1cc2c(s1)N=C(c1ccccc1)N(C)P2(=O)N1CCOCC1 (centres undefined),inactive
19,CCN(CC)CCCOC(=O)C(O)(c1ccccc1)C1CCCCC1 (centres undefined),inactive
20,CCC(=O)N1C2C3N(C(=O)CC)C1C1N(C(=O)CC)C(C(N1C(=O)CC)N3C(=O)CC)N2C(=O)CC,inactive
21,O=C(OC1CN2CCC1CC2)c1ccccc1 (centres undefined),inactive
22,CP(=O)(Nc1ccccc1)Oc1ccc(F)cc1 (centres undefined),inactive
23,CN(C)C(=O)Oc1noc2ccccc12,inactive

row,Structure (SMILES),outcome
1,O=[N+]([O-])c1cc([N+](=O)[O-])c(OC2CCCCC2O)c([N+](=O)[O-])c1 (centres undefined),inactive
2,CCCCCOc1ccc(NP(C)(=O)Oc2ccc(Cl)cc2Cl)cc1 (centres undefined),inactive
3,Cc1ccccc1OP(=O)(Nc1ccccn1)Oc1ccccc1C,inactive
4,CCOc1ccc(C2=NCC(CBr)S2)cc1 (centres undefined),inactive
5,O=P1(Nc2nc3ccc(Cl)cc3s2)COc2ccccc2O1 (centres undefined),inactive
6,CP(=O)(Nc1ccccc1F)Oc1ccccc1 (centres undefined),inactive
7,CC(C)c1ccc(OP(C)(=O)Nc2ccc(SC(F)(F)F)cc2)cc1 (centres undefined),inactive
8,CC(C)(C)C(=O)NC(Sc1ccccc1)C(Cl)(Cl)Cl (centres undefined),inactive
9,O=C(OC1CN2CCC1CC2)c1ccc([N+](=O)[O-])cc1 (centres undefined),inactive
10,CC(=O)c1ccc(N2CC2c2ccncc2)cc1 (centres undefined),inactive
11,C[C@@H]1C=CCP(=O)(Oc2ccccc2)O1 (some centres undefined),inactive
12,C[C@H]1OP(=O)(Oc2ccccc2)C[C@@H]2O[C@@H]21 (some centres undefined),inactive
13,O=C(OCCN1CCN(CCOCc2ccccc2)CC1)C(O)(c1ccccc1)c1ccccc1,inactive
14,CC(=O)Nc1ccc(Oc2c([N+](=O)[O-])cc([N+](=O)[O-])cc2[N+](=O)[O-])cc1,inactive
15,COc1ccc2c(c1O)-c1c(O)c(OC)cc3c1[C@H](C2)[N+](C)(C)CC3.O=[N+]([O-])c1cc([N+](=O)[O-])c([O-])c([N+](=O)[O-])c1[O-],inactive
16,CC(=O)Nc1ccc([As](=O)(O)O)c(O)c1,inactive
17,COc1ccccc1OP(C)(=O)Nc1cccc(Br)c1 (centres undefined),inactive
18,CS(=O)(=O)c1ccc(Cl)c(NC(=O)COC(=O)C(O)(c2ccccc2)c2ccccc2)c1,inactive
19,COc1cc(C(=O)NCC2(N3CCOCC3)CCCCC2)cc(Cl)c1OC(C)C,inactive
20,O=[As](O)(O)c1cccnc1,inactive
21,O=C(OC1CN2CCC1CC2)c1ccc(Cl)cc1 (centres undefined),inactive
22,CCOC(=O)c1ccc(NP(C)(=O)Oc2cc(C)cc(C)c2)cc1 (centres undefined),inactive
23,Cc1cc(C)cc(OP(C)(=O)Nc2ccc(C)cc2C)c1 (centres undefined),inactive

row,Structure (SMILES),outcome
1,O=[As](O)(c1cccc(O)c1)c1cccc(O)c1,inactive
2,Cc1cccc(OCC(=O)OC2CN3CCC2CC3)c1 (centres undefined),inactive
3,CCCOP(=S)(Nc1nc(N)cc(=O)[nH]1)OCCC,inactive
4,Cc1ccc(C)c(NP(C)(=O)Oc2ccccc2)c1 (centres undefined),inactive
5,Cc1ccc(NCCc2c([N+](=O)[O-])cc([N+](=O)[O-])cc2[N+](=O)[O-])cc1,inactive
6,Nc1cccc2c([As](=O)(O)O)cccc12,inactive
7,CP(=O)(Nc1cccc(Br)c1)Oc1ccccc1 (centres undefined),inactive
8,Cc1cc(C)cc(OP(C)(=O)Nc2ccccn2)c1 (centres undefined),inactive
9,CCOP(=O)(Nc1cccc2ccccc12)OCC,inactive
10,CS(=O)(=O)c1cc([N+](=O)[O-])c2no[n+]([O-])c2c1,inactive
11,O=P(Nc1nccs1)(c1ccccc1)c1nc2ccccc2s1 (centres undefined),inactive
12,O=P(Nc1nccs1)(Oc1ccccc1)Oc1ccccc1,inactive
13,CCOP1(=S)c2c(C)nn(CCC#N)c2N=C(c2ccccc2F)N1C (centres undefined),inactive
14,O=C(O)c1cccc(Nc2c([N+](=O)[O-])cc([N+](=O)[O-])cc2[N+](=O)[O-])c1,inactive
15,Nc1ccccc1[As](=O)(O)c1ccccc1,inactive
16,O=C(O)COc1ccc([As](=O)(O)O)cc1[N+](=O)[O-],inactive
17,NC(=O)Nc1ccc([As](=O)(O)O)cc1,inactive
18,CN(C(=O)Cc1ccc(Cl)c(Cl)c1)[C@H]1CC[C@@]2(CCCO2)C[C@@H]1N1CCCC1,inactive
19,CC1=NCCc2c1[nH]c1ccccc21.O=[N+]([O-])c1cc([N+](=O)[O-])c(O)c([N+](=O)[O-])c1,inactive
20,CN(C)C(=O)c1cc([N+](=O)[O-])cc2c1-c1c(cc([N+](=O)[O-])cc1[N+](=O)[O-])C2=O,inactive
21,O=[N+]([O-])c1ccc2c(c1)nnn2O,inactive
22,CCOP1(=S)c2c(C)nn(CCC#N)c2N=C(c2ccc(F)cc2)N1C (centres undefined),inactive
